Drawing on ChEMBL document CHEMBL1127846, “Influence of amine substituents on 5-HT2A versus 5-HT2C binding of phenylalkyl- and indolylalkylamines” (J Med Chem, 1994), this text covers Ki for 1 molecule.

In this assay the target is T1, 5-hydroxytryptamine receptor 2C (Rattus norvegicus, UniProt P08909).
T1 sequence (P08909 whole entry): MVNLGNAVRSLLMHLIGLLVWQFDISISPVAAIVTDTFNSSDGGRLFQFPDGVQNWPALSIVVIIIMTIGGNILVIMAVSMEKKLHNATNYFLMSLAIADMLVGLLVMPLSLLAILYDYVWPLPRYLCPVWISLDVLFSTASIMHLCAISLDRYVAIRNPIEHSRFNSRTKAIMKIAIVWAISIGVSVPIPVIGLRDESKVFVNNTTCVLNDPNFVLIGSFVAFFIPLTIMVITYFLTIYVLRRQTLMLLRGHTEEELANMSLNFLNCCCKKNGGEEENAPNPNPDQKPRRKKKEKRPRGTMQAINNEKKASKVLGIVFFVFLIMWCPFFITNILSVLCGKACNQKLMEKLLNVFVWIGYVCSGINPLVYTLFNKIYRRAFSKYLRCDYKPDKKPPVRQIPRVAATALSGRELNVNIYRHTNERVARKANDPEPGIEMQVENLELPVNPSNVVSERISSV
The experiment in a line: Affinity against 5-hydroxytryptamine 2C receptor in J1 cells transfected with the rat 5-HT2C gene labeled with [3H]mesulergine. It counts as cell-based. The essentials: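 Homogenates of J1 cells carrying the rat 5-HT1C (5-HT2C) gene, labeled with [3H]mesulergine. Competing drug and radioligand incubated at 37 °C for 30 min, then filtered through glass-fiber filters and counted by liquid scintillation. Ki given as mean and SEM of at least two experiments, each done in triplicate.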

Molecules are shown by their SMILES.

Molecule `COc1ccc2[nH]cc(CCN)c2c1` [5-METHOXYTRYPTAMINE] gave a Ki of 500 nM.

The Ki is the equilibrium dissociation constant of an inhibitor or competing ligand from its target. A high value points to a looser hold on the target.
